Experimental data taken from US20110183991A1, “5HT7 RECEPTOR LIGANDS AND COMPOSITIONS COMPRISING THE SAME” (LABORATORIOS DEL DR. ESTEVE, S.A., priority 2008, published 2011).
Some compounds may have been tested in ways that are not shown here.

By UniProt entry, the sequences of proteins in these tests, tags left out.
UniProt P34969, whole entry: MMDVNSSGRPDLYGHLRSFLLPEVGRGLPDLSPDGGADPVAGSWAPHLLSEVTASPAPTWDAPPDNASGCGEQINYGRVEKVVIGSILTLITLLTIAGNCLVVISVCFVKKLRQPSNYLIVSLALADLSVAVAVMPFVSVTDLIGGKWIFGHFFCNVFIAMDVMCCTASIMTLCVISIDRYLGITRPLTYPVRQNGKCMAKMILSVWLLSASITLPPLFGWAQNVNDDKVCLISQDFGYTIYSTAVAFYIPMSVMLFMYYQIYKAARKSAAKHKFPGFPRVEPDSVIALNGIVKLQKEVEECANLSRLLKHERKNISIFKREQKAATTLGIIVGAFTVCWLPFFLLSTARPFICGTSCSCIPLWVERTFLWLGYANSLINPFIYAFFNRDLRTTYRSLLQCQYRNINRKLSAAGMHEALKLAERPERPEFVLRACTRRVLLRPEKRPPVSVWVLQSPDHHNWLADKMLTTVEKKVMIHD

Molecular target: Cloned Human Serotonin Receptor, Subtype 7 (h5HT7), expressed in CHO cells (Homo sapiens, UniProt P34969)
Assay: Radioligand binding assay, [125I]LSD, cloned human 5HT7 receptor on Flashplate
Conditions: 5HT7 binding experiments on the screening selection

Which “affinity for the 5HT7 receptor (in words)” value does the source give for `O=c1[nH]c2ccccc2n1C1CCN(Cc2ccc(F)c(F)c2)CC1` here?
Its value is “good affinity”.
